Laboratory results reported in US12414566B2, “Safener containing herbicidal oil dispersion” (ARYSTA LIFESCIENCE INC, priority 2017, dated 2025).

CCCCCC(C)OC(=O)COc1ccc(Cl)c2cccnc12 (stereo not shown) [cloquintocet-mexyl]
crystallization at low temperatures (butyl benzoate as the carrier): does not crystalize out at low temperatures
crystallization upon dilution (butyl benzoate as the carrier): does not crystalize out upon dilution
crystallization in the concentrated oil dispersion (dispersed in oil phase, cold temperature storage, such as 0-5° C.): crystallizes
crystallization in water upon dilution (suspended CQM, forming cloquintocet hydrate): crystallized in water upon dilution
